We go through five compounds from patent publication US7632933B2, “Corticotropin releasing factor 2 receptor agonists” (priority 2002, dated 2009).

Assay [1] deals with T1, CRF2R (Homo sapiens, UniProt Q13324).
T1 sequence (Q13324 1-411): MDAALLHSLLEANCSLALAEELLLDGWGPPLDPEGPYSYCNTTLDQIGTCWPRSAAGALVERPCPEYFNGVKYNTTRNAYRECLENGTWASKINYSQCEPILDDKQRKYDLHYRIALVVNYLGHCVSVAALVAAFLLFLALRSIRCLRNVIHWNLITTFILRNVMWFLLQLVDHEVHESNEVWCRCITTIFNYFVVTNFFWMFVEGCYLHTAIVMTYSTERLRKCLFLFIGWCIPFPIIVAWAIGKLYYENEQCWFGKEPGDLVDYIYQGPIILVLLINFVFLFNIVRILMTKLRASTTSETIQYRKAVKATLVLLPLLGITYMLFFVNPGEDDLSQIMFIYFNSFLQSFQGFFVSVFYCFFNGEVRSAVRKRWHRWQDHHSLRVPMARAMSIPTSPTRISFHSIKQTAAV
Briefly: CRF2R agonist activity (EC50 and Emax), called comparative CRF binding. Conditions: CRF2R; for EC50: CRF2R EC50 (nM). The class given is cell-based. Summed up: (§1)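 cAMP read-out: lysates of CRF1R- or CRF2R-expressing cells assayed after peptide exposure, compared against vehicle-treated cells; signal from any non-target CRFR subtracted as background.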

The target of assay [2] is T2, CRF1R (Homo sapiens, UniProt P34998).
T2 sequence (P34998 24-415): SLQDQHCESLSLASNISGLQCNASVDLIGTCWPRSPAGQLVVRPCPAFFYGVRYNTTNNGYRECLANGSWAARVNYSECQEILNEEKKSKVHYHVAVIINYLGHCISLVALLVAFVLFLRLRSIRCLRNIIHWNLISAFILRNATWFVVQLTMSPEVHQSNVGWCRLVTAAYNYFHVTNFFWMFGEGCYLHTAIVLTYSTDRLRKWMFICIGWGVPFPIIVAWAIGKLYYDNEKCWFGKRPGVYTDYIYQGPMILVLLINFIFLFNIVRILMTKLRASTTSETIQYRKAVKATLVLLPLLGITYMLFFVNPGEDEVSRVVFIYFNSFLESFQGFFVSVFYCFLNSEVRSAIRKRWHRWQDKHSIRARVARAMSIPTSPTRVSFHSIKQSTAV
Briefly: CRF1R agonist activity (EC50 and Emax), called comparative CRF binding. The class given is cell-based. Conditions: CRF1R; for EC50: CRF1R EC50 (nM). Summed up: as §1

The term EC50 denotes the concentration at which the effect is half-maximal. `CC[C@H](C)[C@H](NC(=O)[C@@H](NC(=O)[C@H](CC(=O)O)NC(=O)[C@H](CC(C)C)NC(=O)[C@H](CC(C)C)NC(=O)[C@H](CC(C)C)NC(=O)[C@H](CCCNC(=N)N)NC(=O)[C@H](CC(N)=O)NC(=O)[C@H](CC(N)=O)NC(=O)[C@H](C)NC(=O)[C@H](C)NC(=O)[C@H](CCC(N)=O)NC(=O)[C@H](CCC(N)=O)NC(=O)[C@H](CCCCN)NC(=O)[C@H](CCC(=O)O)NC(=O)[C@H](CCCCN)NC(=O)[C@H](CCC(=O)O)NC(=O)[C@H](CCC(N)=O)NC(=O)[C@H](CCCCN)NC(=O)[C@H](CCC(=O)O)NC(=O)[C@@H](NC(=O)[C@H](CCC(=O)O)NC(=O)[C@@H](NC(=O)[C@H](CCSC)NC(=O)[C@H](CCCCN)NC(=O)[C@H](CCCNC(=N)N)NC(=O)[C@H](CC(C)C)NC(=O)[C@H](CC(C)C)NC(=O)[C@H](Cc1ccc(O)cc1)NC(=O)[C@H](CO)NC(=O)[C@@H]1CCCN1C(=O)[C@H](CC(C)C)NC(=O)[C@H](CC(=O)O)NC(=O)[C@@H](NC(=O)[C@H](CO)NC(=O)[C@@H](NC(=O)[C@@H]1CCCN1C(=O)[C@@H]1CCCN1C(=O)CNC(=O)[C@@H]1CCC(=O)N1)[C@@H](C)CC)[C@@H](C)CC)[C@@H](C)CC)[C@@H](C)CC)[C@@H](C)O)C(N)=O` [compound 56]: the EC50 in assay [1] was 50.3 nM; in assay [2] it was > 100 nM.

In the case of `CC[C@H](C)[C@H](NC(=O)[C@@H](NC(=O)[C@H](CC(=O)O)NC(=O)[C@H](CC(C)C)NC(=O)[C@H](CC(C)C)NC(=O)[C@H](CC(C)C)NC(=O)[C@H](CCCNC(=N)N)NC(=O)[C@H](CC(N)=O)NC(=O)[C@H](CC(N)=O)NC(=O)[C@H](C)NC(=O)[C@H](C)NC(=O)[C@H](CCC(N)=O)NC(=O)[C@H](CCC(N)=O)NC(=O)[C@H](CCCCN)NC(=O)[C@H](CCC(=O)O)NC(=O)[C@H](CCCCN)NC(=O)[C@H](CCC(=O)O)NC(=O)[C@H](CCC(N)=O)NC(=O)[C@H](CCCCN)NC(=O)[C@H](CCC(=O)O)NC(=O)[C@@H](NC(=O)[C@H](CCC(=O)O)NC(=O)[C@@H](NC(=O)[C@H](CCSC)NC(=O)[C@H](CCCCN)NC(=O)[C@H](CCCNC(=N)N)NC(=O)[C@H](CC(C)C)NC(=O)[C@H](CC(C)C)NC(=O)[C@H](Cc1ccc(O)cc1)NC(=O)[C@@H]1CCCN1C(=O)[C@@H]1CCCN1C(=O)[C@H](CC(C)C)NC(=O)[C@H](CC(=O)O)NC(=O)[C@@H](NC(=O)[C@H](CO)NC(=O)[C@@H](NC(=O)[C@@H]1CCCN1C(=O)[C@@H]1CCCN1C(=O)CNC(=O)[C@@H]1CCC(=O)N1)[C@@H](C)CC)[C@@H](C)CC)[C@@H](C)CC)[C@@H](C)CC)[C@@H](C)O)C(N)=O` [compound 57], the EC50 in assay [1] and in assay [2] was > 100 nM each time.

As to `CC[C@H](C)[C@H](NC(=O)[C@@H](NC(=O)[C@H](CC(=O)O)NC(=O)[C@H](CC(C)C)NC(=O)[C@H](CC(C)C)NC(=O)[C@H](CC(C)C)NC(=O)[C@H](CCCNC(=N)N)NC(=O)[C@H](CC(N)=O)NC(=O)[C@H](CC(N)=O)NC(=O)[C@H](C)NC(=O)[C@H](C)NC(=O)[C@H](CCC(N)=O)NC(=O)[C@H](CCC(N)=O)NC(=O)[C@H](CCCCN)NC(=O)[C@H](CCC(=O)O)NC(=O)[C@H](CCCCN)NC(=O)[C@H](CCC(=O)O)NC(=O)[C@H](CCC(N)=O)NC(=O)[C@H](CCCCN)NC(=O)[C@H](CCC(=O)O)NC(=O)[C@@H](NC(=O)[C@H](CCC(=O)O)NC(=O)[C@@H](NC(=O)[C@H](CCSC)NC(=O)[C@H](CCCCN)NC(=O)[C@H](CCCNC(=N)N)NC(=O)[C@H](CC(C)C)NC(=O)[C@H](CC(C)C)NC(=O)[C@H](CC(N)=O)NC(=O)[C@@H](NC(=O)[C@@H]1CCCN1C(=O)[C@H](CC(C)C)NC(=O)[C@H](CC(=O)O)NC(=O)[C@@H](NC(=O)[C@H](CO)NC(=O)[C@@H](NC(=O)[C@@H]1CCCN1C(=O)[C@@H]1CCCN1C(=O)CNC(=O)[C@@H]1CCC(=O)N1)[C@@H](C)CC)[C@@H](C)CC)[C@@H](C)O)[C@@H](C)CC)[C@@H](C)CC)[C@@H](C)O)C(N)=O` [compound 59], the EC50 in assay [1] and in assay [2] was > 100 nM throughout.

As to `CC[C@H](C)[C@H](NC(=O)[C@@H](NC(=O)[C@H](CC(=O)O)NC(=O)[C@H](CC(C)C)NC(=O)[C@H](CC(C)C)NC(=O)[C@H](CC(C)C)NC(=O)[C@H](CCCNC(=N)N)NC(=O)[C@H](CC(N)=O)NC(=O)[C@H](CC(N)=O)NC(=O)[C@H](C)NC(=O)[C@H](C)NC(=O)[C@H](CCC(N)=O)NC(=O)[C@H](CCC(N)=O)NC(=O)[C@H](CCCCN)NC(=O)[C@H](CCC(=O)O)NC(=O)[C@H](CCCCN)NC(=O)[C@H](CCC(=O)O)NC(=O)[C@H](CCC(N)=O)NC(=O)[C@H](CCCCN)NC(=O)[C@H](CCC(=O)O)NC(=O)[C@@H](NC(=O)[C@H](CCC(=O)O)NC(=O)[C@@H](NC(=O)[C@H](CCSC)NC(=O)[C@H](CCCCN)NC(=O)[C@H](CCCNC(=N)N)NC(=O)[C@H](CC(C)C)NC(=O)[C@H](CC(C)C)NC(=O)[C@H](CCCNC(=N)N)NC(=O)[C@@H](NC(=O)[C@@H]1CCCN1C(=O)[C@H](CC(C)C)NC(=O)[C@H](CC(=O)O)NC(=O)[C@@H](NC(=O)[C@H](CO)NC(=O)[C@@H](NC(=O)[C@@H]1CCCN1C(=O)[C@@H]1CCCN1C(=O)CNC(=O)[C@@H]1CCC(=O)N1)[C@@H](C)CC)[C@@H](C)CC)[C@@H](C)O)[C@@H](C)CC)[C@@H](C)CC)[C@@H](C)O)C(N)=O` [compound 60], the EC50 in assay [1] and in assay [2] was > 100 nM throughout.

Regarding `CC[C@H](C)[C@H](NC(=O)[C@@H](NC(=O)[C@H](CC(=O)O)NC(=O)[C@H](CC(C)C)NC(=O)[C@H](CC(C)C)NC(=O)[C@H](CC(C)C)NC(=O)[C@H](CCCNC(=N)N)NC(=O)[C@H](CC(N)=O)NC(=O)[C@H](CC(N)=O)NC(=O)[C@H](C)NC(=O)[C@H](C)NC(=O)[C@H](CCC(N)=O)NC(=O)[C@H](CCC(N)=O)NC(=O)[C@H](CCCCN)NC(=O)[C@H](CCC(=O)O)NC(=O)[C@H](CCCCN)NC(=O)[C@H](CCC(=O)O)NC(=O)[C@H](CCC(N)=O)NC(=O)[C@H](CCCCN)NC(=O)[C@H](CCC(=O)O)NC(=O)[C@@H](NC(=O)[C@H](CCC(=O)O)NC(=O)[C@@H](NC(=O)[C@H](CCSC)NC(=O)[C@H](CCCCN)NC(=O)[C@H](CCCNC(=N)N)NC(=O)[C@H](CC(C)C)NC(=O)[C@H](CC(C)C)NC(=O)[C@H](C)NC(=O)[C@@H](NC(=O)[C@@H]1CCCN1C(=O)[C@H](CC(C)C)NC(=O)[C@H](CC(=O)O)NC(=O)[C@@H](NC(=O)[C@H](CO)NC(=O)[C@@H](NC(=O)[C@@H]1CCCN1C(=O)[C@@H]1CCCN1C(=O)CNC(=O)[C@@H]1CCC(=O)N1)[C@@H](C)CC)[C@@H](C)CC)[C@@H](C)O)[C@@H](C)CC)[C@@H](C)CC)[C@@H](C)O)C(N)=O` [compound 61], the EC50 in assay [1] and in assay [2] was > 100 nM in each case. Further, the “CRF2R (Emax %)” value in assay [1] (Emax) is on record as “(89) %”. In assay [2] (Emax), the “CRF1R (Emax %)” value was “(12) %”.
